Data published in US8574578B2, “Antibodies against PDGFRα to inhibit tumor growth” (ImClone LLC, priority 2006, dated 2013).

Tested on: LuCaP 35V xenograft
Test: LuCaP 35V subcutaneous xenograft tumor growth
Settings: four-week ip treatment; A12 alone 40 μg/kg as printed; docetaxel 10 mg/kg; docetaxel 10 mg/kg + A12

IMC-A12: human IgG1 anti-IGF-IR antibody; heavy chain variable domain SEQ ID NO:41, light chain variable domain SEQ ID NO:51
tumor growth rate during treatment: 192.7±35.6 mm^3/week
